# Test system: twelve selected human pancreatic cancer cell lines
# Conditions: 2-D, HUP-T3 vs HPAC
# Text: PAXF 546L, PAXF 1986L, PAXF 1998L, PAXF 2005L and PAXF 2059L were established at Oncotest from the corresponding human patient derived xenograft. CAPAN-2, HUP-T3 and PA-TU-8902 were purchased from DSMZ (Braunschweig, Germany). PANC-1 was purchased from CLS Cell Line Services GmbH (Eppelheim, Germany). BxPC-3, HPAC and MIA-Pa-Ca-2 were purchased from ATCC (Rockville, Md., USA). Authenticity of cell lines was confirmed at the DSMZ by STR (short tandem repeat) analysis, a PCR based DNA-fingerprinting methodology. Cell lines were routinely passaged once or twice weekly and maintained in culture for up to 20 passages. All cells were grown at 37° C. in a humidified atmosphere with 5% CO2 in RPMI 1640 medium (25 mM HEPES, with L-glutamine, #FG1385, Biochrom, Berlin, Germany) supplemented with 10% (v/v) fetal calf serum (Sigma, Taufkirchen, Germany) and 0.1 mg/mL gentamicin (Life Technologies, Karlsruhe, Germany).
# The CellTiter-Blue® Cell Viability Assay (#G8081, Promega) was used according to manufacturer's instructions. Briefly, cells were harvested from exponential phase cultures, counted and plated in 96-well flat-bottom microtiter plates at a cell density of 6,000-20,000 cells/well depending on the cell line's growth rate. […] Following an incubation period of up to four hours, fluorescence (FU) was measured by using the Enspire Multimode Plate Reader (excitation λ=531 nm, emission λ=615 nm). […]
smiles,measurement,value
"CC(=O)N=c1sc(S(N)(=O)=O)nn1C [Methazolamide, N-[5-(aminosulfonyl)-3-methyl-1,3,4-thiadiazol-2(3H)-ylidene]acetamide]",difference between the most sensitive and most resistant cell line,7.4 fold
